Results as given in patent US20090131503A1, “3,5 - SUBSTITUTED INDOLE COMPOUNDS HAVING NOS AND NOREPINEPHRINE REUPTAKE INHIBITORY ACTIVITY” (priority 2007, published 2009).

Assays:
[1] = target: T1, Nitric oxide synthase (neuronal, human recombinant) nNOS (Homo sapiens, UniProt P29475); experiment: nNOS (human) enzyme assay, [3H]-L-arginine to L-citrulline conversion; format: biochemical; conditions: Table 3
T1 construct: purchased Axxora LLC ALX-201-068

[2] = target: T2, Nitric oxide synthase (endothelial, human recombinant) eNOS (Homo sapiens, UniProt P29474); experiment: eNOS (human) enzyme assay, [3H]-L-arginine to L-citrulline conversion; format: biochemical
T2 construct: purchased Axxora LLC ALX-201-070

Row | Compound | IC50 [1] | IC50 ([2]; Table 3) | IC50 ([2]; Table 2, compounds tested as hydrochloride salts)
1 | CCNC1CCCC(c2c[nH]c3ccc(NC(=N)c4cccs4)cc23)C1 (racemic) [(±)-9, N-(3-(3-(ethylamino)cyclohexyl)-1H-indol-5-yl)thiophene-2-carboximidamide] | 0.264 µM | 10.8 µM | –
2 | CCNC1CCCC(c2c[nH]c3ccc(NC(=N)c4cccs4)cc23)C1 (racemic) [(±)-10, N-(3-(3-(ethylamino)cyclohexyl)-1H-indol-5-yl)thiophene-2-carboximidamide] | 0.735 µM | 31.8 µM | –
3 | CN[C@H]1CC[C@@H](c2c[nH]c3ccc(NC(=N)c4cccs4)cc32)CC1 [Compound 1a, N-(3-(4-(Methylamino)cyclohexyl)-1H-indol-5-yl)thiophene-2-carboximidamide] | – | – | 25.4 µM
